Test results reported in article PMC3259047 (Molecular Neurodegeneration, 2011).

System: CAA amyloid deposits and neuritic plaques
Experiment: In vivo live imaging through closed cranial window in aged Tg2576 mice
Details: 2 μM superfused through closed cranial window for 5 min

## O=c1ccc2nc3ccc(O)cc3oc-2c1 [Resorufin, 7-hydroxy-3H-phenoxazin-3-one]
  Live fluorescent labeling of amyloid deposits, topical application: intense fluorescent labeling within the walls of the leptomeningeal arteries
